The test system of one assay is TNF-α production. Put plainly: Effect on TNF-α production in mice (in vivo), LPS-induced. The note with it: serum TNF-α 90 min after LPS 500 μg/kg i.p.; test compound orally 30 min before LPS; ratio relative to test compound non-administration group. The method, then: (§1) Since the TNF-α concentration in serum reaches a peak at 90 min after LPS administration, the TNF-α concentration in the serum at this point was measured using FACTOR TEST mTNF-α (manufactured by Genzyme) and the IL-10 concentration at the same point of time was also measured using Murine IL-10 ELISA Kit (manufactured by Endogen). […] The effect of the test compound on the TNF-α production and IL-10 production was calculated by the following formula as the ratio relative to the test compound non-administration group.

Another assay deals with IL-10 production. Put plainly: Effect on IL-10 production in mice (in vivo), LPS-induced. The settings on record: serum IL-10 90 min after LPS 500 μg/kg i.p.; test compound orally 30 min before LPS; ratio relative to test compound non-administration group. The method, then: as §1

For `CC(=O)NCc1ccc(CN2CCN(c3ccc(F)cc3F)CC2)cc1` [Example 20, N-(4-((4-(2,4-Difluorophenyl)piperazin-1-yl)methyl)phenylmethyl)acetamide], the “TNF-α production (%)” value in the assay on TNF-α production amounted to 17%. Further, the “IL-10 production (%)” value in the assay on IL-10 production is listed as 770%.
